Laboratory results published in paper PMC2770177.

Target: F-actin (rat hindleg muscle) (rat) (UniProt P68136)
Assay: co-sedimentation

Row | Substance | Km for Tm binding to actin [nM] | stoichiometry N (Tm/actin (mol/mol))
1 | dephosphorylated α-tropomyosin (rat skeletal muscle) (from UniProt P04692 1-284) (natural protein) | 927 | 0.15
2 | natively phosphorylated α-tropomyosin (rat skeletal muscle) (from UniProt P04692 1-284) (natural protein) | 951 | 
